Assay results reported in article PMC6155811, “Effect of Phenolic Compounds from Elderflowers on Glucose- and Fatty Acid Uptake in Human Myotubes and HepG2-Cells” (Molecules : A Journal of Synthetic Chemistry and Natural …, 2017).

Sequences of proteins named here, by UniProt entry; tags and fusion partners are left off. A change or cut given only in a name is not applied to a line headed by its entry.
UniProt P53341: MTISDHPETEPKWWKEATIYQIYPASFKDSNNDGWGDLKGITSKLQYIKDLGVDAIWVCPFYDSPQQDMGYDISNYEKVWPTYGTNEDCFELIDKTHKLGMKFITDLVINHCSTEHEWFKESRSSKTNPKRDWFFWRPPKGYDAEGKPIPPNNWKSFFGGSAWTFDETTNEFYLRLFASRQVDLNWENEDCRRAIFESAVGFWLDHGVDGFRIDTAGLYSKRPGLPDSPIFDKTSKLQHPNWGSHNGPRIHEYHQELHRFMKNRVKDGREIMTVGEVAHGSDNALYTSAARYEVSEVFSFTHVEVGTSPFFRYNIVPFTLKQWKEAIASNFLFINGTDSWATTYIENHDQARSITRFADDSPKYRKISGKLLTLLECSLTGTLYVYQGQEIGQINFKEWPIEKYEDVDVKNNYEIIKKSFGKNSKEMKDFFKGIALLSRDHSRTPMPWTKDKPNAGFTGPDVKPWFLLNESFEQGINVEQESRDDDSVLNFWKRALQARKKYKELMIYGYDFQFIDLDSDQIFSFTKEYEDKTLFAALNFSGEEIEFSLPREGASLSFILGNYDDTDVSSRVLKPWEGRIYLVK
UniProt P80457, whole entry: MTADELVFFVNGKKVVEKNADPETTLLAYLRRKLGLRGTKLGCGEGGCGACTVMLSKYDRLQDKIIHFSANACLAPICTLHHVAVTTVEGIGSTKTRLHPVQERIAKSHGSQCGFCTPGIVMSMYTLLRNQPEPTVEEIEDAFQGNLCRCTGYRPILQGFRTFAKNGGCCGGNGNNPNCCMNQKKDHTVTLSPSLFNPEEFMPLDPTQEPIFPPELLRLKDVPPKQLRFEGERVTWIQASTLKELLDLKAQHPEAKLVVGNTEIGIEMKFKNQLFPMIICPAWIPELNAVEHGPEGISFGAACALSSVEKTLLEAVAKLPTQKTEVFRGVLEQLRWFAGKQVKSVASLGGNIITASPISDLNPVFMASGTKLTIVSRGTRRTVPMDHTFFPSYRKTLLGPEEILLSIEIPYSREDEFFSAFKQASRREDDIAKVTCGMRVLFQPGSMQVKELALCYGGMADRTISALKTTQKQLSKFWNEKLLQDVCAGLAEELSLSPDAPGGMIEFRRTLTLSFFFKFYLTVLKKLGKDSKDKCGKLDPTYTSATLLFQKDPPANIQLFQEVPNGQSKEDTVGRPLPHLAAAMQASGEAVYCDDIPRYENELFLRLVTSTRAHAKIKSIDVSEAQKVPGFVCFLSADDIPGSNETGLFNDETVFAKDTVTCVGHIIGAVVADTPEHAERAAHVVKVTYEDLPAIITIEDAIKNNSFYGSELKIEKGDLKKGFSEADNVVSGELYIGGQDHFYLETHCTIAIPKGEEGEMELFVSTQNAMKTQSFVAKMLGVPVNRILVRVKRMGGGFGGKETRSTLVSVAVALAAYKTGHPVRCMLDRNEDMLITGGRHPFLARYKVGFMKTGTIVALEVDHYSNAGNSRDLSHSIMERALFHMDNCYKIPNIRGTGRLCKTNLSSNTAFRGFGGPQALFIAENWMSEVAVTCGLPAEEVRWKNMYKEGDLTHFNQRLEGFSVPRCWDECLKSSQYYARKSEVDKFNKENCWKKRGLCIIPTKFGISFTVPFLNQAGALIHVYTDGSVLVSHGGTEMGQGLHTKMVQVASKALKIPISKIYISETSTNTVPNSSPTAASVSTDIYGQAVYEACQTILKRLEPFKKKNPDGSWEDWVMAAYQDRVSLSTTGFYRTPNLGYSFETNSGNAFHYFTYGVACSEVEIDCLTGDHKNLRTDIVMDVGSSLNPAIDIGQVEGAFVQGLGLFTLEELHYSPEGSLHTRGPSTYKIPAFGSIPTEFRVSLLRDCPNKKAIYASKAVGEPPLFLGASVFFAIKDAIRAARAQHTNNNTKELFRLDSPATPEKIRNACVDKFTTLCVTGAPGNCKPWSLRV

Key:
[1] = target: T1, Baker's yeast α-glucosidase (Saccharomyces cerevisiae, UniProt P53341); assay: biochemical; conditions: α-Glucosidase IC50, phenolic compounds and metabolites; IC50 ± SD
T1 construct: purchased Sigma-Aldrich Chemie GmbH (Steinheim, Germany)
Experimental: The α-glucosidase inhibitory activity of the extracts was assessed according to the method described by Ranilla, et al.. Baker’s yeast α-glucosidase (EC 3.2.1.20) was purchased from Sigma-Aldrich Chemie GmbH (Steinheim, Germany).

[2] = target: T2, xanthine oxidase from bovine milk (Bos taurus, UniProt P80457); assay: Inhibition of xanthine oxidase; format: biochemical; conditions: phenolic compounds and metabolites; IC50 ± SD; read-out: XO IC50
T2 construct: xanthine oxidase from bovine milk; purchased Sigma-Aldrich (St. Louis, MO, USA); host or cells: bovine milk
Experimental: The XO inhibitory activity with hypoxanthine as the substrate was carried out previously described. Test substances were dissolved in DMSO or water.

In the case of O=C1C[C@@H](c2ccc(O)cc2)Oc2cc(O)cc(O)c21 [Naringenin], the IC50 [1] is reported as 7.5 ± 1.1 µM.

O=c1c(O)c(-c2ccc(O)cc2)oc2cc(O)cc(O)c12 [Kaempferol] showed an IC50 [2] of 1.8 ± 0.3 µM.
